{"source": "patent US20210205260A1", "about": "“MP53 RESCUE COMPONDS AND METHODS OF TREATING A P53 DISORDER” (priority 2018, published 2021)", "type_in_all_cases": "cell-based, human", "key": {"[1]": {"test_system": "PUMA, BAX, PIG3, p21, MDM2", "assay": "Immunoblotting of p53 downstream proteins", "settings": "in about 48 hours"}, "NCI60 cell lines": {"test_system": "NCI60 cell lines", "assay": "NCI60 cell panel growth inhibition (GI50) profile, DTP / CellMiner", "settings": "GI50 retrieved by CellMiner; p53 status from IARC TP53 database"}, "[2]": {"test_system": "p53 targets MDM2, PIG3, PUMA, CDKN1A, BAX", "assay": "Real time qPCR of p53 downstream mRNA", "settings": "in about 24 hr"}}, "data": [{"substance": "potassium arsenite", "values": [{"measurement": "production of downstream p53 protein (PUMA, BAX, PIG3, p21, MDM2)", "setting": "[1]", "value": "increase production of downstream p53 protein"}, {"measurement": "selectivity of growth inhibition in the NCI60 panel by p53 status (in words)", "setting": "NCI60 cell lines", "value": "selectively targets Structural mp53s"}, {"measurement": "production of p53 downstream mRNA (MDM2, PIG3, PUMA, CDKN1A, BAX)", "setting": "[2]", "value": "increase the production of p53 downstream mRNA"}]}]}
